Tested on: BALB/c 3T3 (CCL-163) cells
Test: 3T3 phototoxicity assay (Neutral Red uptake, with/without UVA)
Details: 5 J/cm^2 UVA vs dark; <0.1 nonphototoxin, 0.1 to <0.15 probable, >=0.15 clear phototoxin

tetracycline pyrazole [COL 5] was tested, and the “MPE (mean photo effect)” value was 0.186.
